According to patent US20030153056A1, “Glycosyltransferase proteins” (priority 2000, published 2003):

Biological target: T1, Brainiac β1-3-N-acetylglucosaminyltransferase (Drosophila melanogaster, UniProt Q24157)
T1 construct: The full coding region of Brainiac was prepared by PCR using genomic DNA; made in house; host or cells: High Five insect cells (baculovirus vector pVL1393); microsomal fractions
T1 sequence (Q24157 1-325): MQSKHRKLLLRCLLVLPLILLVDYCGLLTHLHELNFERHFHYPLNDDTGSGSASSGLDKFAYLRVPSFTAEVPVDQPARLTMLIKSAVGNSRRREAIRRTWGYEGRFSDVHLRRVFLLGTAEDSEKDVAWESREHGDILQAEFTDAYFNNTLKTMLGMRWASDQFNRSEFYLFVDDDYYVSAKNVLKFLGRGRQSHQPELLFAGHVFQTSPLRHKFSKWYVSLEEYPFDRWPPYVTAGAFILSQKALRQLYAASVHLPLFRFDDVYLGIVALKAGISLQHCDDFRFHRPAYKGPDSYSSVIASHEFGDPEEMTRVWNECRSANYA
Experiment: Substrate specificities of Brainiac β1-3-N-acetylglucosaminyltransferase (acceptor panel, microsomal preparations)
Type: biochemical
Conditions: microsomes of pVL-Brainiac infected High Five cells, background of irrelevant construct subtracted, donor UDP-GlcNAc

`OC[C@H]1O[C@@H](O[C@@H]2[C@@H](CO)O[C@](O)(CO)[C@H]2O)[C@H](O)[C@@H](O)[C@H]1O` [Galβ1-4Fru] was tested, and the “Brainiac activity with substrate” value (substrate 2 mM) was 0.05 nmol/h/mg and the “Brainiac activity with substrate” value (substrate 20 mM) was 0.18 nmol/h/mg.
